The target in this assay is T1, α9β1 integrin (Homo sapiens, UniProt P05556+Q13797).
T1 construct: expressed in transfected cells; host or cells: α9+ cells (α9-transfected)
The experiment in a line: inhibition of α9LN18 cell adhesion by LDV peptide. Type of assay: cell-based. To be noted: α9LN18 cells. The source says: CS-1, which contains the LDV (EILDVPST) sequence (SEQ ID NO.: 1), was purchased and tested in a cell adhesion assay. LN18 cells transfected with the α9 integrin subunit (α9LN18) were used in this assay. Immobilized F9 fraction and recombinant VCAM-1 were used as ligands for α9β1 integrin. […] This is the first proof that the LDV motif present in β-conglycinin alpha' is a binding site for α9β1 integrin. […] Next steps include synthesizing a peptide that resembles CS-1 peptide from β-conglycinin alpha' (RDLDVFLS) (SEQ ID NO.: 2), which will be tested as an inhibitor of binding of α9β1 integrin to F9 and to VCAM-1 in a cell adhesion assay using cells expressing this integrin, as well as in an ELISA using purified α9β1 integrin. This strategy will confirm that the LDV motif present in soy β-conglycinin alpha' is a binding site for α9β1 integrin.

The chains behind the UniProt entries cited, without tags or fusion partners. Residues count along the entry.
UniProt Q13797, 30-1035: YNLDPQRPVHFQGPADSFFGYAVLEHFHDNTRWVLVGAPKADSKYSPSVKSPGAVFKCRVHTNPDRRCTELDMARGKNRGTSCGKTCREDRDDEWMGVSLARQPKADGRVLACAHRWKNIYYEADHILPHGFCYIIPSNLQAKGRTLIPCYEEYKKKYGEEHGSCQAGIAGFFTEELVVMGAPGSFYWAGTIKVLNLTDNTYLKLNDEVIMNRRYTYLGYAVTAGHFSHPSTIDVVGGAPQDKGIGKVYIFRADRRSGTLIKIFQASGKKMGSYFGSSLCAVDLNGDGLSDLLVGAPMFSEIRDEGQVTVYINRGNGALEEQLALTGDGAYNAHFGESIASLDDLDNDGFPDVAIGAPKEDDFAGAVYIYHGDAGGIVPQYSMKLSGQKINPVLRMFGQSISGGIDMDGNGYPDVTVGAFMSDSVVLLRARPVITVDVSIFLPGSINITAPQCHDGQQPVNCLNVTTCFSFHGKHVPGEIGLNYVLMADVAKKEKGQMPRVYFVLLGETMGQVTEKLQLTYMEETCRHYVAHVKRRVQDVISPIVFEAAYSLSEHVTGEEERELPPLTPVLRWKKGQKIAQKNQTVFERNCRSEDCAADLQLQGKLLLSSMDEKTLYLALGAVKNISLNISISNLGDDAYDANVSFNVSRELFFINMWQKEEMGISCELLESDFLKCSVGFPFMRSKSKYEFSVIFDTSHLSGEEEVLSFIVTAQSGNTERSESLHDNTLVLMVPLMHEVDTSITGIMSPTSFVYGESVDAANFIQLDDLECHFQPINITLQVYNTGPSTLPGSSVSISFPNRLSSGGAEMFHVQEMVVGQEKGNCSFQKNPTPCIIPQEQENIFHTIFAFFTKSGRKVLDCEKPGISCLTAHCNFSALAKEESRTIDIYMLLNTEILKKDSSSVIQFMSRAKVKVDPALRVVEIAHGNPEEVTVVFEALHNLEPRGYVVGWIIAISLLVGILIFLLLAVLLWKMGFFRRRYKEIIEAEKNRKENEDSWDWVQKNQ

In the case of EILDVPST [CS-1], under “ligand immobilized F9”, the “concentration that completely inhibited cell adhesion to immobilized F9 fraction” value is “around 500 μM”. Also, the “concentration that completely inhibited cell adhesion to recombinant VCAM-1” value (ligand recombinant VCAM-1) is recorded as “around 500 μM”.

For the origin of these results see patent publication US11077169B2, “Soy-derived bioactive peptides for use in compositions and methods for wound healing, tissue engineering, and regenerative medicine” (Temple University-Of The Commonwealth System of Higher …, priority 2015, dated 2021).
